Test results taken from patent publication US11103549B2, “Use of histone methyltransferase inhibitors and histone deacetylase inhibitors for therapy of Phelan-McDermid Syndrome” (Asddr, LLC, priority 2016, dated 2021).
Entries after “also recorded” stand apart in the source; their conditions may differ.

Tests used:
Shank3+/ΔC mice = details: i.p., once daily for 3 days
[1] = Klimek et al., 2008; cited from earlier work
[2] = UNC0642 1 mg/kg or romidepsin 0.25 mg/kg

## Romidepsin
Shank3+/ΔC mice; [2]
  behavioral abnormalities or neuronal loss: does not induce behavioral impairment or neuronal loss; also recorded: No behavioral abnormalities or neuronal loss
  blood chemistry and hematology: indicators for liver and kidney functions, lipid and protein metabolism: within normal ranges
Shank3+/ΔC mice; romidepsin 0.25 mg/kg
  white blood cells and lymphocytes: lower white blood cells and lymphocytes
[1]
  brain permeability: brain-permeable
